# According to ChEMBL document CHEMBL5380877, “Azulene as a biphenyl mimetic in orexin/hypocretin receptor agonists” (Bioorg Med Chem, 2023):
# Sequences of proteins named here, by UniProt entry; tags and fusion partners are left off.
# UniProt O43613, whole entry: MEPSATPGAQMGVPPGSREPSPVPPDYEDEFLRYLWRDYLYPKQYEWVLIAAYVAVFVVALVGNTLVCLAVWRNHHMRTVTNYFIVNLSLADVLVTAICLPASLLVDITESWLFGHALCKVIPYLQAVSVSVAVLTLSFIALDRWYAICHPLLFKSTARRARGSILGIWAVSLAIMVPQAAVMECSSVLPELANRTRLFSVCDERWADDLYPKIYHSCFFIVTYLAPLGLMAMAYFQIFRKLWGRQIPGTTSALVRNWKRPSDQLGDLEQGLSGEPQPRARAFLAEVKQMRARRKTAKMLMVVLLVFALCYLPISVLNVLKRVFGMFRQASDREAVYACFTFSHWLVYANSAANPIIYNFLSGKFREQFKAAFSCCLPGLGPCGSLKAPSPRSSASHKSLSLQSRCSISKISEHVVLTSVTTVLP
# pEC50: −log10 of the molar value.
# Target: Orexin/Hypocretin receptor type 1 (Homo sapiens, UniProt O43613)
# Experiment: Agonist activity at human OX1 receptor expressed in CHO cells assessed as increase in Ca2+ accumulation level measured after 24 hrs by FLIPR calcium 4 assay
# Format: functional, cell-based
smiles,measurement,value
COc1ccc(-c2cccc(C(=O)N(C)C)c2)cc1S(=O)(=O)Nc1cccc(NCCNC(=O)c2cccc(C)c2)c1,pEC50,6.66
